Source: patent US20150051242A1, “RAFAMYCIN ANALOGS AND METHODS FOR MAKING SAME” (HANGZHOU ZYLOX PHARMA CO., LTD, priority 2012, published 2015)

Amino acid sequences for entries named in this document (tags omitted). Residues count along the entry.
UniProt P42345, 1360-2549 limits assumed: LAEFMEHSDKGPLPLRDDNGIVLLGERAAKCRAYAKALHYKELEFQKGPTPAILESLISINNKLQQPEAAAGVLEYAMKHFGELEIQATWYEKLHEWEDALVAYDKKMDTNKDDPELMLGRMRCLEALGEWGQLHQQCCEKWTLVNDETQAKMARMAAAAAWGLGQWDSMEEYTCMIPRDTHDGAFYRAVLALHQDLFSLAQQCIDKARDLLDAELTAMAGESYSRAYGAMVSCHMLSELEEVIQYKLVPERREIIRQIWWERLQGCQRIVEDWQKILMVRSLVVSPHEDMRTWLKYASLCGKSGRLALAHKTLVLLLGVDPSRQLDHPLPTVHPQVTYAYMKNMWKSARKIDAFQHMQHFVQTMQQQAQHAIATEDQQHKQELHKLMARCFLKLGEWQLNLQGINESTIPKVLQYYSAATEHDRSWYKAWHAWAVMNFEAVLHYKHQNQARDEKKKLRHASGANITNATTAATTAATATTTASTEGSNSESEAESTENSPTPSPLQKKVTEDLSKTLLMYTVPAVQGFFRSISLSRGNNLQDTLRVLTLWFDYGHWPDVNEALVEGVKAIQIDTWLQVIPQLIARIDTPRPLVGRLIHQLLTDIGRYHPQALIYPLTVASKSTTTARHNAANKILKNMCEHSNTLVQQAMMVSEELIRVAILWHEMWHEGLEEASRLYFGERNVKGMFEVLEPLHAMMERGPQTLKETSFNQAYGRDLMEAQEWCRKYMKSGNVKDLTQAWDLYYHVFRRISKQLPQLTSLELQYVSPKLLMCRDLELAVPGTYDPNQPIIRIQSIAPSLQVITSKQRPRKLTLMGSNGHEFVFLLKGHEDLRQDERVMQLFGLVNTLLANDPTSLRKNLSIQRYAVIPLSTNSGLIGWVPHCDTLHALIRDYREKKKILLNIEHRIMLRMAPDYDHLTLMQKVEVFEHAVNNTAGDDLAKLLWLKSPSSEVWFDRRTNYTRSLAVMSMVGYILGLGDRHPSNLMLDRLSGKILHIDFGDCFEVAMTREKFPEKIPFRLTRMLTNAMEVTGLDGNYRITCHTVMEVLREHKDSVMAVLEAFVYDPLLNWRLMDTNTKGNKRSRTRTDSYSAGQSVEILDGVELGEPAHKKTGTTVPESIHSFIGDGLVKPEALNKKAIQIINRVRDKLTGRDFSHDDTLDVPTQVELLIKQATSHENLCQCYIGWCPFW
UniProt P62942, whole entry: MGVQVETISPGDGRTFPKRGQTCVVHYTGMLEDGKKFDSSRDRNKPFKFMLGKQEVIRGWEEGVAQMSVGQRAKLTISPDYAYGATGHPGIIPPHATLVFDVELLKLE

Biological target: mTOR (Homo sapiens, UniProt P42345+P62942)
Experiment: mTOR TR-FRET kinase assay (phosphorylation of GFP-4E-BP1)
Type: biochemical
Conditions: read-out: IC50 mTOR inhibition, 10 μM ATP, 0.4 μM GFP-4E-BP1

SMILES: CO[C@H]1C[C@@H]2CC[C@@H](C)[C@@](O)(O2)C(=O)C(=O)N2CCCC[C@H]2C(=O)O[C@H]([C@H](C)C[C@@H]2CC[C@@H](OCc3cn(CC(C)(CO)CO)nn3)[C@H](OC)C2)CC(=O)[C@H](C)/C=C(\C)[C@@H](O)[C@@H](OC)C(=O)[C@H](C)C[C@H](C)/C=C/C=C/C=C/1C
- IC50: > 10 µM
